Data as given in PMC3702509, “Label Free Fragment Screening Using Surface Plasmon Resonance as a Tool for Fragment Finding – Analyzing Parkin, a Difficult CNS Target” (PLoS ONE, 2013).

Tests used:
[1] = biological target: T1, FL-FLAG-Parkin (full-length Parkin with N-terminal 3xFLAG and TEV site) (human), O60260; experiment: SPR; thermal treated (56°C) FL-FLAG Parkin captured on amine-coupled anti-FLAG M2 antibody on a CM5 chip; protein ligands injected; 25°C; 10 mM HEPES pH 7.4, 150 mM NaCl, 0.005% Tween-20, 4 mM reducing agent; 1:1 binding model; settings: remark: other sources report otherwise
[2] = biological target: T1, FL-FLAG-Parkin (full-length Parkin with …); experiment: SPR; non-thermal treated (RT) FL-FLAG Parkin captured on amine-coupled anti-FLAG M2 antibody on a CM5 chip at 3:1 (Parkin:Ab); protein ligands injected in dilution series; 25°C; 10 mM HEPES pH 7.4, 150 mM NaCl, 0.005% Tween-20, 4 mM reducing agent; 1:1 binding model; Biacore T100 or T200; settings: remark: other sources report otherwise

Kd [1]: 7.4 µM
Kd [2]: 5.4 µM
dissociation time (printed beside kd) [2]: 2 min
B1: His-tagged ubiquitin-like domain of Parkin (UblD, residues 1-76), O60260-1 1-76 (domain or fragment)
chain: MIVFVRFNSSHGFPVEVDSDTSIFQLKEVVAKRQGVPADQLRVIFAGKELRNDWTVQNCDLDQQSIVHIVQRPWRK
